{"source": "patent US11564958B2", "about": "“Compositions and methods of treatment of Ehlers-Danlos syndromes” (RESOLYS BIO, INC., priority 2017, dated 2023)", "origin": "cited, not measured here", "test_system": "classical form of EDS", "settings": "human, in vivo", "data": [{"substance": "IGF-I", "values": [{"measurement": "tendon collagen synthesis rates", "value": "improved"}]}]}
